For data set [1], the system named is mouse melanoma B16. The experiment in a line: Example 5: chlorogenic acid-cyclophosphamide combination against mouse melanoma B16. The settings on record: cyclophosphamide 60 mg/kg × 1, i.p., before dosing. The text has this: (§1) After inoculation, animals were divided into groups next day, weighed, and administration of drugs started.
Each group contains 15 animals.

The subject of data set [2] is mouse melanoma B16. The experiment in a line: Example 4: tumor inhibitory rate of chlorogenic acid against mouse melanoma B16. The settings on record: cyclophosphamide 60 mg/kg × 1, i.p., C57BL/6 mice, before dosing.
Excerpt: as §1
Each group includes 15 animals.

Data set [3] deals with mouse melanoma B16. The experiment in a line: Example 7: chlorogenic acid-5-flurouracil combination against mouse melanoma B16. The settings on record: 5-flurouracil 500 mg/kg × 4, i.p., BALB/c mice, end of study.
Data set [4] concerns mouse melanoma B16. The experiment in a line: Example 6: chlorogenic acid-adriamycin or chlorogenic acid-cisplatin combination against mouse melanoma B16. Type of data set: in vivo. The settings on record: adriamycin 3 mg/kg × 6, i.p. The text has this:
Single adriamycin and its combined drug were both administrated every other day, with total six successive administrations. […] Single cisplatin and its combined drug were both administrated every three days, with total three administrations. […] Each group contains 15 animals.

`O=P1(N(CCCl)CCCl)NCCCO1` (centres unmarked) [cyclophosphamide]: the entries for the “Body weight (g) x ± SD Initial” value in the data set on mouse melanoma B16 [1] and in the data set on mouse melanoma B16 [2] were 19.59 ± 0.81 g and 19.93 ± 0.53 g, respectively.
`O=c1[nH]cc(F)c(=O)[nH]1` [5-flurouracil, 5-fluorouracil]: in the data set on mouse melanoma B16 [3], the “Body weight (g) x ± SD End” value was 18.30 ± 1.19 g.
Take `COc1cccc2c1C(=O)c1c(O)c3c(c(O)c1C2=O)C[C@@](O)(C(=O)CO)C[C@@H]3O[C@H]1C[C@H](N)[C@H](O)[C@H](C)O1` [Adriamycin, adriamycin]: in the data set with mouse melanoma B16 [4] (before dosing), the “Body weight (g) x ± SD Initial” value came to 19.65 ± 0.97 g. The “Body weight (g) x ± SD End” value in the data set with mouse melanoma B16 [4] (end of study) came to 21.46 ± 3.53 g.

(Values after patent US10265289B2, “Method and medicines for treating melanoma” (SICHUAN JIUZHANG BIOLOGICAL SCIENCE AND TECHNOLOGY CO., LTD., priority 2015, dated 2019).)
